The numbers were not newly measured in PubChem BioAssay AID977610 (Shanghai Institute of Organic Chemistry, 2014), which cites them from elsewhere.

Holding throughout (experiment): PubChem AID 977610
Data set [1] concerns the target human Leukotriene A-4 hydrolase (LTA4H). The settings on record: PDB protein-ligand complexes, literature Ki; protein: human Leukotriene A-4 hydrolase (LTA4H); PDB entry 3b7u.
A further data set addresses FK506 binding protein. The settings on record: PDB protein-ligand complexes, literature Ki, protein: FK506 binding protein.
A further data set concerns the target 1PWP A. The settings on record: PDB protein-ligand complexes, literature Ki; PDB entry 1PWP.
Another data set concerns the target HIV-1 Protease. The settings on record: PDB protein-ligand complexes, literature Ki; protein: HIV-1 Protease; PDB entry 3QAA.
Data set [2] has as its target E.Coli (lacZ) beta-galactosidase (R599A). To be noted: PDB protein-ligand complexes, literature Ki, protein: E.Coli (lacZ) beta-galactosidase (R599A).
The target in data set [3] is stalked-cell differentiation controlling protei. To be noted: PDB protein-ligand complexes, literature Ki; protein: stalked-cell differentiation controlling protei; PDB entry 1W25.
Data set [4] has as its target Acetylcholine-binding protein nAChR. To be noted: PDB protein-ligand complexes, literature Ki; protein: Acetylcholine-binding protein nAChR; PDB entry 4nzb.
The target in another data set is aiia-like protein. To be noted: PDB protein-ligand complexes, literature Ki; protein: aiia-like protein; PDB entry 2BR6.
The target in data set [5] is Peptide deformylase 1B (PDF1B). The settings on record: PDB protein-ligand complexes, literature Ki; protein: Peptide deformylase 1B (PDF1B); PDB entry 3O3J.
Data set [6] deals with Soluble acetylcholine receptor (Mutant II). The settings on record: PDB protein-ligand complexes, literature Ki; protein: Soluble acetylcholine receptor (Mutant II); PDB entry 3SIO.
For data set [7], the target named is Soluble acetylcholine receptor (Mutant III). To be noted: PDB protein-ligand complexes, literature Ki; protein: Soluble acetylcholine receptor (Mutant III); PDB entry 3SH1.
Data set [8] addresses Glycogen synthase kinase-3 beta. The settings on record: PDB protein-ligand complexes, literature Ki; protein: Glycogen synthase kinase-3 beta; PDB entry 4iq6.
A further data set concerns the target coagulation factor x. To be noted: PDB protein-ligand complexes, literature Ki; protein: coagulation factor x; PDB entry 2BQW.
The next data set addresses coagulation factor xa. The settings on record: PDB protein-ligand complexes, literature Ki; protein: coagulation factor xa; PDB entry 2BOH.
Another data set addresses glutamate receptor 2. The settings on record: PDB protein-ligand complexes, literature Ki; protein: glutamate receptor 2; PDB entry 2CMO.
The target of the next data set is ribonuclease A (RNase A). The settings on record: PDB protein-ligand complexes, literature Ki, protein: ribonuclease A (RNase A).
Data set [9] deals with CAMP-DEPENDENT PROTEIN KINASE. The settings on record: PDB protein-ligand complexes, literature Ki, protein: CAMP-DEPENDENT PROTEIN KINASE.
Data set [10] addresses hypothetical protein ydce. To be noted: PDB protein-ligand complexes, literature Ki; protein: hypothetical protein ydce; PDB entry 1GYX.
Data set [11] deals with cell division protein kinase 2. The settings on record: PDB protein-ligand complexes, literature Ki; protein: cell division protein kinase 2; PDB entry 2CLX.
Another data set concerns the target Glycogen phosphorylase. The settings on record: PDB protein-ligand complexes, literature Ki; protein: Glycogen phosphorylase; PDB entry 3G2N.
Data set [12] has as its target dihydrodipicolinate synthase. The settings on record: PDB protein-ligand complexes, literature Ki; protein: dihydrodipicolinate synthase; PDB entry 1YXD.
Another data set addresses 1ZXV A. To be noted: PDB protein-ligand complexes, literature Ki; PDB entry 1ZXV.
Data set [13] has as its target 3-DEHYDROQUINATE DEHYDRATASE
The settings on record: PDB protein-ligand complexes, literature Ki; protein: 3-DEHYDROQUINATE DEHYDRATASE; PDB entry 2XD9.

In data set [14] the target is human tryoptophan hydroxylase type 1. The settings on record: PDB protein-ligand complexes, literature Ki; protein: human tryoptophan hydroxylase type 1; PDB entry 3HF8.
The target of the next data set is acetylcholinesterase. To be noted: PDB protein-ligand complexes, literature Ki; protein: acetylcholinesterase; PDB entry 1H23.
Another data set deals with Factor VIIa. To be noted: PDB protein-ligand complexes, literature Ki; protein: Factor VIIa; PDB entry 4ng9.
Data set [15] concerns the target Cellobiose Phosphorylase(CBP). The settings on record: PDB protein-ligand complexes, literature Ki; protein: Cellobiose Phosphorylase(CBP); PDB entry 3QFY.
The target of another data set is ribonuclease a. The settings on record: PDB protein-ligand complexes, literature Ki; protein: ribonuclease a; PDB entry 1W4P.
Another data set concerns the target chitinase b. To be noted: PDB protein-ligand complexes, literature Ki; protein: chitinase b; PDB entry 1O6I.
For a further data set, the target named is beta-lactamase. To be noted: PDB protein-ligand complexes, literature Ki; protein: beta-lactamase; PDB entry 1MXO.
The target of the next data set is thymidylate kinase. The settings on record: PDB protein-ligand complexes, literature Ki; protein: thymidylate kinase; PDB entry 1W2G.
The target of data set [16] is 3-phosphoinositide dependent protein kinase-1. The settings on record: PDB protein-ligand complexes, literature Ki; protein: 3-phosphoinositide dependent protein kinase-1; PDB entry 1W1D.

For `C[C@H](NC(=O)[C@@H](CC(=O)NO)Cc1ccccc1)C(=O)O`, the inhibition constant (Ki) in [1] is 0.018 µM. Consider `CC1(C)COC(=O)CCCCCCCCCCCOC(=O)[C@@H]2CCCCN2C(=O)C1=O`, for which the Ki at FK506 binding protein (PDB entry 1FKI) is 0.1 µM. Turning to `Cc1cc(N)c2cc(NC(=O)Nc3ccc4nc(C)cc(N)c4c3)ccc2n1`, on 1PWP A, the Ki was 0.5 µM. As for `COc1ccc(S(=O)(=O)N(CC(C)C)C[C@@H](O)[C@H](Cc2ccccc2)NC(=O)O[C@H]2CO[C@H]3OC[C@H](OC)[C@H]32)cc1`, at HIV-1 Protease, the Ki was 2.9 pM.

On to `O=C1O[C@H](CO)[C@H](O)[C@H](O)[C@H]1O`, for which the Ki in [2] (PDB entry 3MV0) was 140 µM. Regarding `Nc1nc2c(ncn2[C@@H]2O[C@H](COP(=O)(O)O)[C@@H](O)[C@H]2O)c(=O)[nH]1`, the Ki in [3] was 0.5 µM. Turning to `N#Cc1cccc(-c2nc(-c3cccnc3)no2)c1`, in [4], the Ki was 67 µM. Turning to `N[C@H]1CCOC1=O`, the Ki at aiia-like protein is 1100 µM. Consider `O=C(Cc1c[nH]c2ccc(Br)cc12)NO`, for which the Ki in data set [5] is 0.4 µM. For the compound `CCN1C[C@]2(COC(=O)c3ccccc3N3C(=O)C[C@H](C)C3=O)CC[C@H](OC)[C@@]34[C@@H]5C[C@H]6[C@H](OC)[C@@H]5[C@](O)(C[C@@H]6OC)[C@@](O)([C@@H](OC)[C@H]23)[C@@H]14`, the values for the inhibition constant Ki in data set [6] and in [7] were 0.01 µM and 0.041 µM, respectively.

With `CC(C)S[C@@H]1O[C@H](CO)[C@H](O)[C@H](O)[C@H]1O`, the Ki in [2] (PDB entry 3MUZ) is 350 µM. On to `Clc1cc(-c2c[nH]c3ncccc23)cc(NC2CCCCC2)n1`, for which the Ki in data set [8] is 0.058 µM. For the compound `CC(C)N1CCC(NC(=O)c2cc3ccccc3n2CC(=O)Nc2ccc(Cl)cc2)CC1`, the Ki at coagulation factor x is 0.003 µM. Turning to `CC(C)N1CCC(NC(=O)c2cc3ccccc3n2Cc2cc(-c3ccc(Cl)s3)on2)CC1`, on coagulation factor xa, the Ki is 0.003 µM. For `CN1CCc2c(-c3ccc(S(=O)(=O)N(C)C)cc3)cc3c(c2C1)NC(=O)/C3=N/O[C@@H](CCO)C(=O)O`, at glutamate receptor 2, the Ki was 0.394 µM. Regarding `CCC(C)(C)C(=O)C(=O)N1CCCC[C@H]1C(=O)O[C@H](CCc1ccccc1)c1ccccc1`, the Ki at FK506 binding protein (PDB entry 1FKG) was 0.01 µM. In the case of `O=c1ccn([C@@H]2O[C@H](COP(=O)(O)O)[C@@H](O)[C@H]2O)c(=O)[nH]1`, at ribonuclease A (RNase A) (PDB entry 3DXG), the Ki was 4000 µM.

As to `Cc1[nH]nc2ccc(-c3cncc(OC[C@@H](N)Cc4c[nH]c5ccccc45)c3)cc12`, the Ki in data set [9] (PDB entry 2JDS) and in data set [9] (PDB entry 2JDV) was 0.0063 µM in each case. On to `O=C(O)c1ccccc1`, for which the Ki in data set [10] was 3300 µM. In the case of `Nc1n[nH]c(N)c1N=Nc1ccc(O)cc1`, in [11], the Ki is 13.3 µM.

As for `O=C(N[C@@H]1O[C@H](CO)[C@@H](O)[C@H](O)[C@H]1O)c1ccccc1`, at Glycogen phosphorylase, the Ki is 81 µM.

On to `NCCCC[C@H](N)C(=O)O`, for which the Ki in [12] was 5 µM.

With `O=C(O)CCN1C(=O)/C(=C\c2ccc(-c3ccc(Cl)cc3)o2)SC1=S`, at 1ZXV A, the Ki was 0.8 µM. In the case of `C/C=C/c1cc2c(s1)[C@@H](O)[C@H](O)C[C@]2(O)C(=O)O`, the Ki in data set [13] is 0.35 µM. For `O=c1ccn([C@@H]2O[C@H](COP(=O)(O)OP(=O)(O)O)[C@@H](O)[C@H]2O)c(=O)[nH]1`, the Ki at ribonuclease A (RNase A) (PDB entry 3DXH) is 650 µM. For the compound `CO[C@H]1C[C@@H]2CC[C@@H](C)[C@@](O)(O2)C(=O)C(=O)N2CCCC[C@H]2C(=O)O[C@H]([C@H](C)C[C@@H]2CC[C@@H](O)[C@H](OC)C2)CC(=O)[C@H](C)/C=C(\C)[C@@H](O)[C@@H](OC)C(=O)[C@H](C)C[C@H](C)/C=C/C=C/C=C/1C`, on FK506 binding protein (PDB entry 1PBK), the Ki is 0.0009 µM.

On to `Nc1nc(O[C@H](c2ccc(-c3cccc(F)c3)cc2)C(F)(F)F)cc(-c2ccc(C[C@H](N)C(=O)O)cc2)n1`, for which the Ki in [14] was 0.31 µM. As for `O=c1ccc2c([nH]1)CCC[C@@H]2NCCCCCCCCCCCCN[C@H]1CCCc2[nH]c(=O)ccc21`, the Ki at acetylcholinesterase was 0.0045 µM. As for `CCOc1cc([C@@H](Nc2ccc3c(N)nccc3c2)C(=O)NCc2cccc(S(N)(=O)=O)c2)ccc1OC(C)C`, the Ki on Factor VIIa is 0.075 µM.

As for `OC[C@H]1CNC[C@@H](O)[C@@H]1O`, the Ki in data set [15] was 0.75 µM. As for `O=c1ccn([C@H]2C[C@H](OP(=O)(O)O)[C@@H](CO)O2)c(=O)[nH]1`, the Ki at ribonuclease a was 18 µM.

For the compound `O=C[C@H]1CCCN1`, the Ki at chitinase b was 650 µM. On to `O=C(Cc1cccs1)N[C@H]([Al])c1cccc(C(=O)O)c1`, for which the Ki on beta-lactamase was 0.001 µM. Regarding `Cc1cn([C@H]2C[C@H](O)[C@@H](CO)O2)c(=O)[nH]c1=O`, the Ki on thymidylate kinase was 27 µM. On to `O=P(O)(O)OC1[C@H](O)[C@H](OP(=O)(O)O)C(OP(=O)(O)O)[C@H](OP(=O)(O)O)[C@H]1O` (some centres not stated), for which, in data set [16], the Ki was 0.3 µM.

As a reminder, the Ki is a dissociation constant, usually derived from enzyme kinetics or from competition with a known ligand.
